Patent publication US20110263552A1, “MODULATION OF SIDE EFFECT PROFILE OF 5-ALPHA REDUCTASE INHIBITOR THERAPY” (SOV Therapeutics, priority 2009, published 2011)

Test: Testosterone undecanoate (TU) solubility in various solubilizers
Conditions: at 37 C.

## CCCCCCCCCCC(=O)O[C@H]1CC[C@H]2[C@@H]3CCC4=CC(=O)CC[C@]4(C)[C@H]3CC[C@]12C [TU, testosterone undecanoate]
Vehicle Glyceryl mono and dicapylate/caprate (Imwitor 742)
  TU Solubility: 356 mg/g
Vehicle Labrafil M 1944 CS
  TU Solubility: 242 mg/g
Vehicle Linseed oil
  TU Solubility: 179 mg/g
Vehicle Olive oil
  TU Solubility: 161 mg/g
Vehicle Phosal 50 PG (~50% Lecithin in PG, sunflower mono-diglycerides and ascorbyl palmitate)
  TU Solubility: 138 mg/g
Vehicle Sesame oil
  TU Solubility: 138 mg/g
Vehicle Soybean oil
  TU Solubility: 113 mg/g
